Drawing on PubChem BioAssay AID2551 (National Center for Advancing Translational Sciences (NCATS), 2010), this text covers activity change, negative = inhibition for 55 molecules.

The chains behind the UniProt entries cited, without tags or fusion partners.
UniProt P51450, whole entry: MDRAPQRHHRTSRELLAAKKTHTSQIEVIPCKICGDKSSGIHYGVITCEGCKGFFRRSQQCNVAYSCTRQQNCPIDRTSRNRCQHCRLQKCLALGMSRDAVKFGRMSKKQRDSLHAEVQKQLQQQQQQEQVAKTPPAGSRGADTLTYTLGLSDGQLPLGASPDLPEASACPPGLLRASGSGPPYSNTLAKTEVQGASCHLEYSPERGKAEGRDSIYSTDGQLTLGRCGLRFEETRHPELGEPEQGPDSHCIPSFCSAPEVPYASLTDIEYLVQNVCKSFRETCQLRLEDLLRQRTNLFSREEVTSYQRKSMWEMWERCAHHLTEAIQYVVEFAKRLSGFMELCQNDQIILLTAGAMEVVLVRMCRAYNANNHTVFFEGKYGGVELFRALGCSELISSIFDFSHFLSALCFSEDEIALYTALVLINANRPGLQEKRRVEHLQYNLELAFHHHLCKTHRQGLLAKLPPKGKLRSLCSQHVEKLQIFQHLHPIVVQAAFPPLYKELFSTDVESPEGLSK

This is a selection; strong and weak results do not stand in their true shares. Records with an inconclusive call do not appear. Some salts or complexes appear as unconnected parts, following the source record. Activity calls are given as the source filed them. Calls come from the whole dose curve; as a rule, active = well fitted inhibition curve with a large enough effect; inconclusive = small, poorly fitted or top-dose-only effect, or effect the other way; inactive = no such curve, though single readings can be large or run the other way.
% is set by controls: 0 for no effect and ±100 for the full control effect.

The target in the assay is Nuclear receptor ROR-gamma (Mus musculus) (UniProt P51450). In words: qHTS for inhibitors of ROR gamma transcriptional activity. Note: nearly all actives have a fitted effect of over 60% in size. The following applies: Drosophila S2 Gal4-RORgamma UAS-luciferase reporter, 20 h; at 53.6 µM (top of the series).
Consider `CC(C)c1ccc(NC2CCN(C(=O)OC(C)(C)C)CC2)cc1`, for which the activity change, negative = inhibition is inactive: 0.542%.

With `COc1ccc(CN(CCCl)CCCl)cc1Cl`, the activity change, negative = inhibition is inactive: 1.48%.

As for `CN(C)c1cccc(C(=O)NCC2(N3CCCCC3)CCCCC2)c1`, the activity change, negative = inhibition is inactive: 1.74%.

As to `COc1cc(OC)c(C(=O)NCC2(N(C)C)CCCCC2)cc1OC`, the activity change, negative = inhibition was inactive: -22.3%.

Consider `CCOP(=O)(Cl)Cl`, for which the activity change, negative = inhibition was inactive: 10.6%.

For the molecule `O=C(OC1CN2CCC1CC2)c1ccc([N+](=O)[O-])cc1` (stereo not given), the activity change, negative = inhibition was inactive: 19.3%.

Consider `COc1ccc2c(c1O)-c1c(O)c(OC)cc3c1[C@H](C2)[N+](C)(C)CC3.O=[N+]([O-])c1cc([N+](=O)[O-])c([O-])c([N+](=O)[O-])c1[O-]`, for which the activity change, negative = inhibition was inactive: -10.4%.

On to `CCCOc1ccc(C(=O)NCC2(N(C)C)CCCCC2)cc1OC`, for which the activity change, negative = inhibition is inactive: 39.6%.

In the case of `O=C(NCC1(N2CCCCC2)CCCCC1)c1ccc(OC(F)F)cc1`, the activity change, negative = inhibition is inactive: 2.03%.

As to `N#CC1(Nc2ccccc2)CCN(CCc2ccccc2)CC1`, the activity change, negative = inhibition is inactive: 27.4%.

With `O=C(NCC1(N2CCCCC2)CCCCC1)c1cccc([N+](=O)[O-])c1`, the activity change, negative = inhibition is inactive: -14%.

Consider `O=C(NCC1(N2CCCCC2)CCCCC1)c1cccc(C(F)(F)F)c1`, for which the activity change, negative = inhibition is inactive: 3.55%.

For the molecule `COc1cc(C(=O)NCC2(N3CCCCC3)CCCCC2)ccc1OC(F)F`, the activity change, negative = inhibition is inactive: -14.7%.

In the case of `O=C(NCC1(N2CCOCC2)CCCCC1)c1cc(=O)[nH]c2ccccc12`, the activity change, negative = inhibition was inactive: 4.46%.

`CN1CCN(CCOC(=O)C(O)(c2ccccc2)c2ccccc2)CC1`: the activity change, negative = inhibition was inactive: -1.34%.

Take `COc1ccc(NC2CCN(C(=O)OC(C)(C)C)CC2)cc1`: the activity change, negative = inhibition is inactive: 43.5%.

As for `CCOc1ccc(C)cc1CN(CCCl)CCCl`, the activity change, negative = inhibition was inactive: 8.74%.

For the molecule `O=C(NCC1(N2CCCCC2)CCCCC1)c1ccc(F)cc1`, the activity change, negative = inhibition is inactive: -5.67%.

As to `COc1ccc(NC2CCN(CCc3ccccc3)CC2)c(OC)c1`, the activity change, negative = inhibition was inactive: -11.6%.

With `CCOC(=O)N1CCC(Nc2ccc(F)cc2)CC1`, the activity change, negative = inhibition was inactive: -18.7%.

On to `COc1cc(C(=O)NCC2(N(C)C)CCCCC2)ccc1OC(F)F`, for which the activity change, negative = inhibition was inactive: -12.2%.

`COc1ccc(C(=O)NCC2(N3CCCCC3)CCCCC2)cc1`: the activity change, negative = inhibition is inactive: -21.6%.

Turning to `CC(C)(C)OC(=O)N1CCC(N(C(=O)c2ccccc2)c2ccc(F)cc2)CC1`, the activity change, negative = inhibition is inactive: 0.41%.

With `COc1ccc(C(=O)NCC2(N3CCCCC3)CCCCC2)c(OC)c1OC`, the activity change, negative = inhibition was inactive: 1.45%.

As to `O=C(NCC1(N2CCCCC2)CCCCC1)c1ccc(=O)[nH]c1`, the activity change, negative = inhibition is inactive: -15%.

For the molecule `CSc1ccccc1C(=O)NCC1(N2CCCCC2)CCCCC1`, the activity change, negative = inhibition was inactive: -20.6%.

Turning to `Cc1cc(C)cc(N(C(=O)c2ccccc2)C2CCN(C(=O)OC(C)(C)C)CC2)c1`, the activity change, negative = inhibition is inactive: -2.19%.

As to `O=C(NCC1(N2CCOCC2)CCCCC1)c1cc2ccccc2o1`, the activity change, negative = inhibition was inactive: -2.24%.

As for `O=C(OC1CN2CCC1CC2)C1c2ccccc2Oc2ccccc21` (stereo not given), the activity change, negative = inhibition was inactive: -16.6%.

With `N#CC1(Nc2ccccc2)CCN(Cc2ccccc2)CC1`, the activity change, negative = inhibition was inactive: -2.92%.

Turning to `CCOC(=O)N1CCC(Nc2ccc(OC)cc2)CC1`, the activity change, negative = inhibition was inactive: 1.83%.

With `CCOc1ncccc1C(=O)NCC1(N2CCOCC2)CCCCC1`, the activity change, negative = inhibition was inactive: 5.15%.

With `CN1CCC(Nc2ccc(F)c(Cl)c2)CC1`, the activity change, negative = inhibition is inactive: 7.44%.

As for `CC(C)(C)OC(=O)N1CCC(Nc2ccccc2)CC1`, the activity change, negative = inhibition is inactive: 1.13%.

Take `O=C(O)C1(Nc2ccccc2)CCN(Cc2ccccc2)CC1`: the activity change, negative = inhibition is inactive: -18.7%.

For `CCCOc1ccc(C(=O)NCC2(N(C)C)CCCCC2)cc1`, the activity change, negative = inhibition was inactive: -0.175%.

For the molecule `COc1cc(OC)cc(C(=O)NCC2(N3CCOCC3)CCCCC2)c1`, the activity change, negative = inhibition is inactive: 2.05%.

Turning to `COc1cccc(C(=O)N(c2cc(C)cc(C)c2)C2CCN(C(=O)OC(C)(C)C)CC2)c1`, the activity change, negative = inhibition was inactive: -2.54%.

On to `CCC(CO)(C(=O)OC1CN2CCC1CC2)c1ccccc1` (stereo not given), for which the activity change, negative = inhibition was inactive: -3.57%.

Turning to `CCCOc1ccc(C)cc1CN(CCCl)CCCl`, the activity change, negative = inhibition was inactive: -11.8%.

For the molecule `COc1cc(OC)cc(C(=O)NCC2(N3CCCCC3)CCCCC2)c1`, the activity change, negative = inhibition was inactive: 1.18%.

As to `Fc1ccccc1NC1CCN(Cc2ccccc2)CC1`, the activity change, negative = inhibition was inactive: -25.7%.

Take `CCN1CCC(Nc2cccc(F)c2)CC1`: the activity change, negative = inhibition was inactive: -9.4%.

For the molecule `CN(C)c1ccc(C(=O)NCC2(N3CCCCC3)CCCCC2)cc1`, the activity change, negative = inhibition is inactive: 11.9%.

Turning to `N#Cc1ccc(C(=O)NCC2(N3CCCCC3)CCCCC2)cc1`, the activity change, negative = inhibition is inactive: 4.89%.

`CC(C)(C)OC(=O)N1CCC(N(C(=O)c2ccccc2)c2ccc(Cl)cc2)CC1`: the activity change, negative = inhibition was inactive: -25.4%.

Regarding `CCOC(=O)C(CC)C1=NC(C)(C)Cc2ccccc21.O=[N+]([O-])c1cc([N+](=O)[O-])c(O)c([N+](=O)[O-])c1` (stereo not given), the activity change, negative = inhibition was inactive: -16.3%.

Turning to `ClCCOP(OCCCl)OCCCl`, the activity change, negative = inhibition is inactive: -26.7%.

On to `CN(C)C1(CNC(=O)c2cccc(C#N)c2)CCCCC1`, for which the activity change, negative = inhibition was inactive: -14.5%.

Consider `c1ccc(CN2CCC(Nc3ccccc3)CC2)cc1`, for which the activity change, negative = inhibition is inactive: 3.47%.

For the molecule `COc1ccc(C(=O)NCC2(N3CCOCC3)CCCCC2)cc1OC`, the activity change, negative = inhibition is inactive: 1.2%.

In the case of `CCOC(=O)N1CCC(Nc2ccc(C)cc2)CC1`, the activity change, negative = inhibition was inactive: 17.5%.

On to `N/C(=N\O)c1c(N)no[n+]1[O-]`, for which the activity change, negative = inhibition was inactive: -15.6%.

Regarding `O=C(OC1CN2CCC1CC2)C1c2ccccc2C=Cc2ccccc21` (stereo not given), the activity change, negative = inhibition is inactive: 13.8%.

As for `O=C(O)c1cccc(Nc2c([N+](=O)[O-])cc([N+](=O)[O-])cc2[N+](=O)[O-])c1`, the activity change, negative = inhibition was inactive: -19.3%.
